Results from PubChem BioAssay (EPA / NIEHS).
The entries are a selection whose mix differs from that of the whole data set. Results filed as inconclusive are left out. Activity calls are given as the source filed them. How the source made its calls, unless noted: active means hit-call score of the fitted dose curve at least 0.9, where 1 is the maximum; inconclusive means response in the unintended direction; inactive means score below 0.9.

Amino acid sequences for entries named in this document (tags omitted). A change or cut given only in a name is not applied to a line headed by its entry.
UniProt Q14994: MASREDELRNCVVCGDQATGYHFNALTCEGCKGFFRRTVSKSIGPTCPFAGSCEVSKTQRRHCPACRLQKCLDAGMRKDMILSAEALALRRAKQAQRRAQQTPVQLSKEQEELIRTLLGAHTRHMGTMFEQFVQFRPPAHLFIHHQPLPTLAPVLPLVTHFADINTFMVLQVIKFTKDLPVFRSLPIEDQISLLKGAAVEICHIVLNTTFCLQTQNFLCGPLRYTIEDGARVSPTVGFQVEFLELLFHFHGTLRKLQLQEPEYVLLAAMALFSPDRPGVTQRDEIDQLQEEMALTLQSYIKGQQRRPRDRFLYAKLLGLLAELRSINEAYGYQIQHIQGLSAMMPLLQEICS
UniProt P03372, whole entry, looked up: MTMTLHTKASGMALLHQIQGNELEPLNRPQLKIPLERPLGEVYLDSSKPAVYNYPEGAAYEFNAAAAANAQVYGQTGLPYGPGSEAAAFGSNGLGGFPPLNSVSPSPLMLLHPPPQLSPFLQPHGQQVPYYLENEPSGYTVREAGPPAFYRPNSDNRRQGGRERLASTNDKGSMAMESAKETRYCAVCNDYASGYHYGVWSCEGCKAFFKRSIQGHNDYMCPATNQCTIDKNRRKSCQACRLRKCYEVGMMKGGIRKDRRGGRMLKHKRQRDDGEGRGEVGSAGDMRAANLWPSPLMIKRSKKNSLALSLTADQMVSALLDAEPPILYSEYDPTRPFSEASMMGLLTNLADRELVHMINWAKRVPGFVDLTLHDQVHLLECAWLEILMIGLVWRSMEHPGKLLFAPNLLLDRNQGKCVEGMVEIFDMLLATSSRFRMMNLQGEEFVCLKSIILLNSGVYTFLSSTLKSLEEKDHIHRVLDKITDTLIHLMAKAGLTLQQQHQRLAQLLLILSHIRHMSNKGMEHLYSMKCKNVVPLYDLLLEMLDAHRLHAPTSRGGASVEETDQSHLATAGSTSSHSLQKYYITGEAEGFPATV
UniProt P11474: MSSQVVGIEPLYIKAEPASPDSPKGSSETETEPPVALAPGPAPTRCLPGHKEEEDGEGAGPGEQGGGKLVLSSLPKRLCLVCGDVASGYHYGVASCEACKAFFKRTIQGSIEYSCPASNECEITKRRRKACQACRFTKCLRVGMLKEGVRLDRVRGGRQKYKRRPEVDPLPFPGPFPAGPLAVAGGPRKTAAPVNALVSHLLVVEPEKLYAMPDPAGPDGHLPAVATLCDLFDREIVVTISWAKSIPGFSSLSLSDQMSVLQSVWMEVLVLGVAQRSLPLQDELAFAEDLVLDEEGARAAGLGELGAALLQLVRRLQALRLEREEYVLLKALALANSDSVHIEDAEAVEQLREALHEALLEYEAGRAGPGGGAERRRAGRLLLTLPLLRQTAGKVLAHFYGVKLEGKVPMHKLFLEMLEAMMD
UniProt P17861: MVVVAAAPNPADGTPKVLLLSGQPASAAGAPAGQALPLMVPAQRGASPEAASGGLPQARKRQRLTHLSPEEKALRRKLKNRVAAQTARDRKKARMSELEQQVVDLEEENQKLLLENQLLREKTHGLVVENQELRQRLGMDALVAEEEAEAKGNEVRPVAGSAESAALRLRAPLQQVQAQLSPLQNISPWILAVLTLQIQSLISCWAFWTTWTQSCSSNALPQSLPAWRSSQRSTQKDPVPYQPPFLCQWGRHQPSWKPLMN

Each molecule was assayed against Nuclear receptor subfamily 1 group I member 3 (Homo sapiens) (UniProt Q14994) (assay: ATG_CAR_TRANS: Attagene TRANS-FACTORIAL HepG2 Assay for human Constitutive Androstane Receptor (CAR) (AID 2282969;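 further: activators raise reporter mRNA above DMSO so AC50 marks induction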)). Details: HepG2 Attagene TRANS-FACTORIAL CAR reporter.
Procedure, shortened: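 Steps: transient transfection of HepG2 with multiple GAL4-UAS reporter units; 24 h compound incubation; RNA isolation, RT-PCR, 6-FAM primer extension, HpaI digest; capillary electrophoresis. Gain-of-signal relative to DMSO negative control.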
CCCCC(CC)CO[P+](=O)OCC(CC)CCCC (stereo not drawn) was tested, and the outcome was “inactive”.
With CCCCOP(OCCCC)OCCCC the outcome was “inactive”.
In the case of O=P(Cl)(Oc1ccccc1)Oc1ccccc1, the outcome is reported as “inactive”.
In the case of O=C(Cl)Oc1ccccc1, the outcome is reported as “inactive”.
O=[P+](Oc1ccccc1)Oc1ccccc1 was tested, and the outcome was “inactive”.
In the case of CN(C(=O)Cc1cccc2occc12)[C@H]1CC[C@@]2(CCCO2)C[C@@H]1N1CCCC1, the outcome is reported as “inactive”.
O=C1C2CC=CCC2C(=O)N1SC(Cl)(Cl)C(Cl)Cl (stereo not drawn) was tested, and the outcome was “inactive”.
In the case of CC(C)CCCCCCCOP(OCCCCCCCC(C)C)Oc1ccccc1, the outcome is reported as “inactive”.
With O=[As]c1ccccc1 (stereo not drawn) the outcome was “inactive”.

These molecules were tested against Estrogen receptor (Homo sapiens) (UniProt P03372) (assay: ATG_ERa_TRANS: Attagene TRANS-FACTORIAL HepG2 Assay for human Estrogen Receptor alpha (ERa) (AID 2282970)). Details: HepG2 Attagene TRANS ERa GAL4 reporter, mRNA.
Procedure, shortened: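 Transfected HepG2 cells carrying GAL4-UAS-driven reporter units were dosed for 24 hours. Total RNA was reverse-transcribed, reporter sequences PCR-amplified, FAM-labelled, HpaI-digested and resolved by capillary electrophoresis. Increases over DMSO control defined activity.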
With CCCCC(CC)CO[P+](=O)OCC(CC)CCCC (stereo not drawn) the outcome was “inactive”.
CCCCOP(OCCCC)OCCCC was tested, and the outcome was “inactive”.
O=P(Cl)(Oc1ccccc1)Oc1ccccc1 was tested, and the outcome was “inactive”.
O=[P+](Oc1ccccc1)Oc1ccccc1 was tested, and the outcome was “inactive”.
For O=[N+]([O-])c1ccc([N+](=O)[O-])cc1, the outcome was “inactive”.
CN(C(=O)Cc1cccc2occc12)[C@H]1CC[C@@]2(CCCO2)C[C@@H]1N1CCCC1 was tested, and the outcome was “inactive”.
CC(C)CCCCCCCOP(OCCCCCCCC(C)C)Oc1ccccc1 was tested, and the outcome was “inactive”.
With O=[As]c1ccccc1 (stereo not drawn) the outcome was “inactive”.

These molecules were tested against Steroid hormone receptor ERR1 (Homo sapiens) (UniProt P11474) (assay: ATG_ERRa_TRANS: Attagene TRANS-FACTORIAL HepG2 Assay for human Estrogen-Related Receptor alpha (ERRa) (AID 2282971)). Details: HepG2 Attagene TRANS reporter, ERRa transactivation.
Procedure, shortened: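 HepG2 cells were transiently transfected with multiple GAL4-UAS reporter units, then dosed with compound for 24 h. Total RNA was reverse-transcribed, reporter cDNA PCR-amplified and fluorescently labelled, and fragments resolved by capillary electrophoresis; induction was compared with DMSO.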
With CC(C)OP(=S)(OC(C)C)SCCNS(=O)(=O)c1ccccc1 the outcome was “inactive”.
In the case of O=C(Cl)Oc1ccccc1, the outcome is reported as “inactive”.
In the case of O=[p+]1oc2ccccc2c2ccccc21 (stereo not drawn), the outcome is reported as “inactive”.
For O=C(Cl)OCCOC(=O)Cl, the outcome was “inactive”.
With O=C1C2CC=CCC2C(=O)N1SC(Cl)(Cl)C(Cl)Cl (stereo not drawn) the outcome was “inactive”.

The molecules below were run against X-box-binding protein 1 (Homo sapiens) (UniProt P17861) (assay: ATG_Xbp1_CIS: Attagene CIS-FACTORIAL HepG2 Assay for human X-box Binding Protein 1 (XBP1) (AID 2282972; active means hit-call score of the fitted dose curve at least 0.9, where 1 is the maximum; inactive means score below 0.9)). Details: HepG2 XBP1 cis-element reporter, Attagene multiplex; actives raise or lower the signal.
Procedure, shortened: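 Multiplexed cis-reporter readout in transfected HepG2 liver cells. Exposure lasted 24 hours. Activity in either direction was fitted against DMSO as negative control and baseline.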
For ClP(Cl)c1ccccc1, the outcome was “inactive”.
CC(C)OP(=S)(OC(C)C)SCCNS(=O)(=O)c1ccccc1 was tested, and the outcome was “inactive”.
In the case of CCCCC(CC)CO[P+](=O)OCC(CC)CCCC (stereo not drawn), the outcome is reported as “inactive”.
With CCCCOP(OCCCC)OCCCC the outcome was “inactive”.
O=P(Cl)(Oc1ccccc1)Oc1ccccc1 was tested, and the outcome was “inactive”.
With O=C(Cl)Oc1ccccc1 the outcome was “inactive”.
With Cc1cc([N+](=O)[O-])cc([N+](=O)[O-])c1O the AC50 was active: 67.4 µM.
With CCCCO[P+](=O)OCCCC the outcome was “inactive”.
With O=[p+]1oc2ccccc2c2ccccc21 (stereo not drawn) the outcome was “inactive”.
In the case of O=[P+](Oc1ccccc1)Oc1ccccc1, the outcome is reported as “inactive”.
CN(C(=O)Cc1cccc2occc12)[C@H]1CC[C@@]2(CCCO2)C[C@@H]1N1CCCC1 was tested, and the outcome was “inactive”.
In the case of O=C(Cl)OCCOC(=O)Cl, the outcome is reported as “inactive”.
In the case of N#CSc1ccc([N+](=O)[O-])cc1[N+](=O)[O-], the outcome is reported as “inactive”.
O=C1C2CC=CCC2C(=O)N1SC(Cl)(Cl)C(Cl)Cl (stereo not drawn) was tested, and the outcome was “inactive”.
With CC(C)CCCCCCCOP(OCCCCCCCC(C)C)Oc1ccccc1 the outcome was “inactive”.
In the case of O=[As]c1ccccc1 (stereo not drawn), the AC50 is reported as active: 0.334 µM.
